Experimental data from US20160115200A1, “New Use for JNK Inhibitor Molecules for Treatment of Various Diseases” (XIGEN INFLAMMATION LTD., priority 2013, published 2016).

Experiment: Stability (half-life) of JNK inhibitors in human serum, UPLC-MS
Conditions: human serum (50% in FIG. 5; 10 and 50% in PBS 1x), 0.1 mM peptide
Method: The experiment was performed as described by Tugyi et al. (Proc Natl Acad Sci USA, 2005, 413-418). The remaining intact peptide was quantified by UPLC-MS.

With “GRKKRRQRRRPPRPKRPTTLNLFPQVPRSQD [SEQ ID NO: 196]” the “time until totally degraded into amino acids residues” value was at most 6 h.
